Test system: erythrocytes
Test: Hemolysis assay, erythrocytes in PBS
Format: cell-based, human
Conditions: 1 μM concentration
Description: Erythrocytes were incubated (0.5 h, 37 °C) with different CAMP concentrations ranging from 6.25 μM to 100 μM. Incubation conditions chosen were similar to those used in other studies. Following incubation, the samples were centrifuged, and the supernatant analyzed spectrophotometrically for hemoglobin at 414 nm and 540 nm. Absorption at 414 nm provides higher sensitivity. The results were the same no matter which wavelength was used to monitor for hemoglobin.
The hemolytic activity of CAMPs was determined using a hemolysis assay measuring hemoglobin released from damaged cells. A working erythrocyte suspension (in PBS) was prepared so that its ten-fold dilution gave an optical density of 0.4 at 800 nm. This working suspension corresponded to a cell density of about 30 × 10^6 cells/mL. Aliquots of 125 μL of CAMP solutions of different concentrations were added to Eppendorf tubes. […] The supernatant (200 μL) was transferred to the wells of a microplate, and the absorbance of hemoglobin was measured by a Thermo Electron Multiskan Ascent microplate reader (Thermo Fisher Scientific Inc., Waltham, MA, USA), with a test wavelength of 414 nm as well as 540 nm and a background wavelength of 690 nm. The hemolysis percentage was calculated using the following equation: Hemolysis (%) = {(sample absorbance − negative control)/(positive control − negative control)} × 100.

Question: CC[C@H](C)[C@H](NC(=O)CN)C(=O)NCC(=O)N[C@@H](C)C(=O)N[C@H](C(=O)N[C@@H](CC(C)C)C(=O)N[C@@H](CCCCN)C(=O)N[C@H](C(=O)N[C@@H](CC(C)C)C(=O)N[C@H](C(=O)N[C@H](C(=O)NCC(=O)N[C@@H](CC(C)C)C(=O)N1CCC[C@H]1C(=O)N[C@@H](C)C(=O)N[C@@H](CC(C)C)C(=O)N[C@H](C(=O)N[C@@H](CO)C(=O)N[C@@H](Cc1c[nH]c2ccccc12)C(=O)N[C@H](C(=O)N[C@@H](CCCCN)C(=O)N[C@@H](CCCNC(=N)N)C(=O)N[C@@H](CCCCN)C(=O)N[C@@H](CCCNC(=N)N)C(=O)N[C@@H](CCC(N)=O)C(=O)N[C@@H](CCC(N)=O)C(N)=O)[C@@H](C)CC)[C@@H](C)CC)[C@@H](C)O)[C@@H](C)O)C(C)C)C(C)C [melittin, reference compound] was tested. Which Hemolysis did it give?
Answer: 100%

— article PMC9503446, “Effects of Medicinal Leech-Related Cationic Antimicrobial Peptides on Human Blood Cells and Plasma” (Molecules, 2022)
